Assay results from PubChem BioAssay (NCI).
Where “and” joins values, the source holds several entries; their conditions need not be identical. Equal values may be shown once. Some of these compounds have results that are not shown, active ones among them.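 Grown in 96-well plates, cells were treated for 48 hours with each compound at five concentrations. Insufficient inhibition: endpoint recorded as highest concentration tested. GI50 = concentration required for 50% inhibition of growth. At the TGI there is no net growth.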

Tests used:
Test in all cases: DTP human tumour cell line panel, 48 h
[1] = tested on: MALME-3M melanoma
[2] = tested on: MOLT-4 leukemia
[3] = tested on: NCI/ADR-RES ovarian
[4] = tested on: HT29 colon
[5] = tested on: HS 578T breast
[6] = tested on: T-47D breast
[7] = tested on: MDA-MB-435
[8] = tested on: NCI-H226 lung
[9] = tested on: SF-268 CNS
[10] = tested on: M14 melanoma
[11] = tested on: NCI-H460 lung
[12] = tested on: PC-3 prostate
[13] = tested on: HOP-92 NSCLC
[14] = tested on: SK-OV-3 ovarian
[15] = tested on: LOX IMVI melanoma
[16] = tested on: CAKI-1 renal
[17] = tested on: HL-60(TB) leukemia
[18] = tested on: UACC-62 melanoma
[19] = tested on: SR leukemia
[20] = tested on: 786-0 renal
[21] = tested on: OVCAR-3 ovarian
[22] = tested on: UO-31 renal
[23] = tested on: OVCAR-8 ovarian
[24] = tested on: SNB-19 CNS
[25] = tested on: ACHN renal
[26] = tested on: SF-295 CNS
[27] = tested on: U251 CNS
[28] = tested on: RXF 393 renal
[29] = tested on: EKVX NSCLC
[30] = tested on: TK-10 renal
[31] = tested on: COLO 205 colon
[32] = tested on: HOP-62 NSCLC
[33] = tested on: NCI-H23 lung
[34] = tested on: SK-MEL-5 melanoma
[35] = tested on: HCT-116 colon
[36] = tested on: HCC-2998 colon
[37] = tested on: UACC-257 melanoma
[38] = tested on: IGROV1 ovarian
[39] = tested on: HCT-15 colon
[40] = tested on: OVCAR-4 ovarian
[41] = tested on: K-562 leukemia
[42] = tested on: SW-620 colon
[43] = tested on: MDA-N
[44] = tested on: NCI-H522 lung
[45] = tested on: SK-MEL-2 melanoma
[46] = tested on: CCRF-CEM leukemia
[47] = tested on: MDA-MB-231 breast
[48] = tested on: SNB-75 CNS
[49] = tested on: RPMI-8226 leukemia
[50] = tested on: MCF7 breast
[51] = tested on: SF-539 CNS
[52] = tested on: SK-MEL-28 melanoma
[53] = tested on: A549 NSCLC
[54] = tested on: BT-549 breast
[55] = tested on: SN12C renal
[56] = tested on: KM12 colon
[57] = tested on: OVCAR-5 ovarian
[58] = tested on: DU-145 prostate
[59] = tested on: A498 renal

Structure (SMILES): O=C(OC1CN2CCC1CC2)C(c1ccccc1)C1(O)CCCC1 (stereo not drawn)
- GI50 [1]: > 100 µM
- TGI [1]: > 100 µM
- GI50 [2]: > 100 µM
- TGI [2]: > 100 µM
- GI50 [3]: > 100 µM
- TGI [3]: > 100 µM
- GI50 [4]: > 100 µM
- TGI [4]: > 100 µM
- GI50 [5]: 90.1 µM and 20.1 µM
- TGI [5]: > 100 µM
- GI50 [6]: > 100 µM
- TGI [6]: > 100 µM
- GI50 [7]: > 100 µM
- TGI [7]: > 100 µM
- GI50 [8]: > 100 µM and 87.8 µM
- TGI [8]: > 100 µM
- GI50 [9]: > 100 µM
- TGI [9]: > 100 µM
- GI50 [10]: > 100 µM
- TGI [10]: > 100 µM
- GI50 [11]: > 100 µM
- TGI [11]: > 100 µM
- GI50 [12]: > 100 µM
- TGI [12]: > 100 µM
- GI50 [13]: > 100 µM
- TGI [13]: > 100 µM
- GI50 [14]: > 100 µM
- TGI [14]: > 100 µM
- GI50 [15]: > 100 µM
- TGI [15]: > 100 µM
- GI50 [16]: > 100 µM
- TGI [16]: > 100 µM
- GI50 [17]: > 100 µM
- TGI [17]: > 100 µM
- GI50 [18]: > 100 µM
- TGI [18]: > 100 µM
- GI50 [19]: > 100 µM
- TGI [19]: > 100 µM
- GI50 [20]: > 100 µM
- TGI [20]: > 100 µM
- GI50 [21]: > 100 µM
- TGI [21]: > 100 µM
- GI50 [22]: > 100 µM and 57.8 µM
- TGI [22]: > 100 µM
- GI50 [23]: > 100 µM
- TGI [23]: > 100 µM
- GI50 [24]: > 100 µM
- TGI [24]: > 100 µM
- GI50 [25]: > 100 µM
- TGI [25]: > 100 µM
- GI50 [26]: > 100 µM and 43.5 µM
- TGI [26]: > 100 µM
- GI50 [27]: > 100 µM
- TGI [27]: > 100 µM
- GI50 [28]: > 100 µM and 33.9 µM
- TGI [28]: > 100 µM
- GI50 [29]: > 100 µM
- TGI [29]: > 100 µM
- GI50 [30]: > 100 µM
- TGI [30]: > 100 µM
- GI50 [31]: > 100 µM
- TGI [31]: > 100 µM
- GI50 [32]: > 100 µM
- TGI [32]: > 100 µM
- GI50 [33]: > 100 µM
- TGI [33]: > 100 µM
- GI50 [34]: > 100 µM and 96.5 µM
- TGI [34]: > 100 µM
- GI50 [35]: > 100 µM
- TGI [35]: > 100 µM
- GI50 [36]: > 100 µM
- TGI [36]: > 100 µM
- GI50 [37]: > 100 µM
- TGI [37]: > 100 µM
- GI50 [38]: > 100 µM
- TGI [38]: > 100 µM
- GI50 [39]: > 100 µM
- TGI [39]: > 100 µM
- GI50 [40]: > 100 µM
- TGI [40]: > 100 µM
- GI50 [41]: > 100 µM
- TGI [41]: > 100 µM
- GI50 [42]: > 100 µM
- TGI [42]: > 100 µM
- GI50 [43]: > 100 µM
- TGI [43]: > 100 µM
- GI50 [44]: > 100 µM
- TGI [44]: > 100 µM
- GI50 [45]: > 100 µM
- TGI [45]: > 100 µM
- GI50 [46]: > 100 µM
- TGI [46]: > 100 µM
- GI50 [47]: > 100 µM
- TGI [47]: > 100 µM
- GI50 [48]: > 100 µM and 43.7 µM
- TGI [48]: > 100 µM
- GI50 [49]: > 100 µM
- TGI [49]: > 100 µM
- GI50 [50]: > 100 µM
- TGI [50]: > 100 µM
- GI50 [51]: > 100 µM
- TGI [51]: > 100 µM
- GI50 [52]: > 100 µM
- TGI [52]: > 100 µM
- GI50 [53]: > 100 µM
- TGI [53]: > 100 µM
- GI50 [54]: > 100 µM
- TGI [54]: > 100 µM
- GI50 [55]: > 100 µM
- TGI [55]: > 100 µM
- GI50 [56]: > 100 µM
- TGI [56]: > 100 µM
- GI50 [57]: > 100 µM
- TGI [57]: > 100 µM
- GI50 [58]: > 100 µM
- TGI [58]: > 100 µM
- GI50 [59]: 29.1 µM
- TGI [59]: > 100 µM
